Assay: Solubility in water of calcium salts
Type: physicochemical
From the text: The solubility in water of the calcium lactobionate thus obtained was compared with those of other calcium salts (manufactured by Wako Pure Chemical Industries).

- Solubilities in water: 0.001 g/100 mL
Substance: Ca oxalate

— patent publication US8808728B2, “Feed additive for laying hen and feed containing the same” (Unitika Ltd., priority 2004, dated 2014)
